Test results taken from patent US20050203086A1, “Methods of treatment using an EP2 selective receptor agonist” (Pfizer Inc., priority 2004, published 2005).

Protein sequences, listed by entry. Tags and fused reporters are not part of them. Lines headed by an entry give the natural chain unless they say otherwise; changes in a name come on top.
UniProt P43116: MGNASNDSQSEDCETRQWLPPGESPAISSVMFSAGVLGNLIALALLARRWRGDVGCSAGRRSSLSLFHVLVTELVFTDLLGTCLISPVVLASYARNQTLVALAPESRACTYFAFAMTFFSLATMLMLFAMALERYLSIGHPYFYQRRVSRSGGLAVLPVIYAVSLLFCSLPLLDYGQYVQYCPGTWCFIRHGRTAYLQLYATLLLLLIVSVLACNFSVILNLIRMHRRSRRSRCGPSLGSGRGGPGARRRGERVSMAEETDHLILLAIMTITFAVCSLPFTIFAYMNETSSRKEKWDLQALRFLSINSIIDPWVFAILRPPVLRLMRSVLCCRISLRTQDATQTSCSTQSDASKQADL

Molecular target: T1, human EP2 receptor (Homo sapiens, UniProt P43116)
T1 construct: cDNAs representing the complete open reading frames of the human EP2 and EP4 receptors; expressed in transfected cells
Assay: Scatchard analysis of specific [3H]PGE2 binding in the 293-S line overexpressing recombinant human EP2
Settings: read-out: Kd for PGE2 (EP2); 293-S/EP2 line selected for compound screening
Text: cDNAs representing the complete open reading frames of the human EP2 and EP4 receptors are generated by reverse transcriptase polymerase chain reaction using oligonucleotide primers based on published sequences (1, 2) and RNA from primary human kidney cells (EP2) or primary human lung cells (EP4) as templates. cDNAs are cloned into the multiple cloning site of pcDNA3 (Invitrogen Corporation, 3985B Sorrento Valley Blvd., San Diego, Calif. 92121) and used to transfect 293-S human embryonic kidney cells via calcium phosphate co-precipitation. […] Constituitive expression of both receptors in parental 293-S cells is negligible. Cells are maintained in RPMI supplemented with fetal bovine serum (10% final) and G418 (700 ug/ml final).

## CCCCC[C@H](O)/C=C/[C@H]1[C@H](O)CC(=O)[C@@H]1C/C=C\CCCC(=O)O [PGE2]
  Kd: 12 nM
